From US20230172930A1, “USE OF COMPLEMENT FACTOR D INHIBITORS ALONE OR IN COMBINATION WITH ANTI-C5 ANTIBODIES FOR TREATMENT OF PAROXYSMAL NOCTURNAL HEMOGLOBINURIA” (Alexion Pharmaceuticals, Inc., priority 2020, published 2023)
“And” between values parts separate entries of the source, which are not always exact repeats. Equal values may be shown once. Read-outs that look alike come from different tables or passages of the source.

Columns and labels:
[1] = tested on: PNH patients with an inadequate response to eculizumab; assay: Phase 2 open-label study of danicopan added to eculizumab: laboratory markers of PNH (Hgb, LDH, reticulocytes, bilirubin); format: in vivo, human
Experimental: All doses were taken approximately 15-30 minutes after completion of a meal or snack. Dose escalations, to a maximum of 200 mg three times a day, were based on safety and hemoglobin values and permitted at 4-week intervals through week 12 at 50 mg increments. If the patient had not already reached the 200 mg three times daily maximal dose by week 12, escalation was permitted if clinically indicated. […] Patients completing treatment with clinical benefit entered a long-term extension phase.
Descriptive statistics are provided for biochemical, quality-of-life measurements, and transfusion data. Continuous variables are summarized with mean, median, minimum and maximum values. Categorical variables, e.g., transfusion-independent, are summarized with counts and percentages. Missing values were not imputed.

[2] = tested on: PNH patients with an inadequate response to eculizumab; assay: Phase 2 study: RBC transfusion needs (events, units, annualized rates); format: in vivo, human; conditions: 24 weeks prior to screening, on stable eculizumab
Experimental: Transfusion frequency and amount were evaluated via annualized rates and units, respectively. The average intensive rate of transfusion frequency before treatment was calculated by summing the number of transfusion events in the 52 weeks prior to Screening plus days from Screening to Day 1 of dosing from 10 patients and dividing this sum by the patients' total exposure times. The average intensive rate in the 24 weeks post-treatment was calculated with the same method. The ratio of these two intensive rates (post vs. pre) was used to quantify the treatment effect. Standard statistical analysis for comparing the two intensity rates (post- vs pre-treatment) was conducted.

patients with PNH [3] = conditions: eculizumab monotherapy, SHEPHERD trial; cited from earlier work
patients with PNH [4] = conditions: eculizumab monotherapy, TRIUMPH trial; cited from earlier work

B1: eculizumab (antibody)
heavy: QVQLVQSGAEVKKPGASVKVSCKASGYIFSNYWIQWVRQAPGQGLEWMGEILPGSGSTEYTENFKDRVTMTRDTSTSTVYMELSSLRSEDTAVYYCARYFFGSSPNWYFDVWGQGTLVTVSSASTKGPSVFPLAPCSRSTSESTAALGCLVKDYFPEPVTVSWNSGALTSGVHTFPAVLQSSGLYSLSSVVTVPSSNFGTQTYTCNVDHKPSNTKVDKTVERKCCVECPPCPAPPVAGPSVFLFPPKPKDTLMISRTPEVTCVVVDVSQEDPEVQFNWYVDGVEVHNAKTKPREEQFNSTYRVVSVLTVLHQDWLNGKEYKCKVSNKGLPSSIEKTISKAKGQPREPQVYTLPPSQEEMTKNQVSLTCLVKGFYPSDIAVEWESNGQPENNYKTTPPVLDSDGSFFLYSRLTVDKSRWQEGNVFSCSVMHEALHNHYTQKSLSLSLGK
light: DIQMTQSPSSLSASVGDRVTITCGASENIYGALNWYQQKPGKAPKLLIYGATNLADGVPSRFSGSGSGTDFTLTISSLQPEDFATYYCQNVLNTPLTFGQGTKVEIKRTVAAPSVFIFPPSDEQLKSGTASVVCLLNNFYPREAKVQWKVDNALQSGNSQESVTEQDSKDSTYSLSSTLTLSKADYEKHKVYACEVTHQGLSSPVTKSFNRGEC
baseline Hgb ([1]; Patient A (no transfusions, religious objections; hereditary elliptocytosis), on eculizumab before danicopan): 5.0 g/dL and 5 g/dL | mean Hgb ([1]; at entry, on stable eculizumab, before danicopan, 11 patients): 7.9 mg/dL | mean RBC transfusions [2]: 3.4 | mean units transfused [2]: 5.8 units | increase in FACIT-Fatigue score versus baseline (patients with PNH [3]): 12.2 points | increase in FACIT-Fatigue score versus baseline (patients with PNH [4]): 6.4 points
